In the library only some 0.92% were active in any assay of this set; here they are far more common.
RXFP1 antagonist: antagonists of human relaxin receptor RXFP1 | Q9HBX9 | activity change, negative = inhibition, % at 57.5 µM | HEK293-RXFP1, relaxin-stimulated cAMP HTRF, 30 min; active compounds read low | 350,000 tested, 0.59% active;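 active = activity change of -60% or lower, but not beyond a set lower limit; inconclusive = change between -60% and -40%, or beyond the set limit; inactive = change above -40%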
RXFP1 ag: activates the human relaxin receptor RXFP1; HEK293T-RXFP1 cAMP TR-FRET, 30 min; response scale: percent of porcine relaxin response, buffer zero; Potency, µM (top dose mostly 57.5 µM), most hits filed as activators; Q9HBX9; 370,000 tested, 0.3% active; AID 2676; also: nearly all actives have a fitted effect of over 60% in size
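Agonist response is measured as cAMP accumulation in an RXFP1-transfected HEK293T line under PDE4 inhibition. Values are scaled between buffer-only and 29 nM porcine relaxin, and EC50s come from standard Hill equation fits.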
miR-21 reporter: miR-21 reporter, rising signal; HeLa miR-21 FLuc reporter, luciferase, 48 h; Potency, µM (doses to about 38.3 µM); 340,000 tested, under 10 active; AID 2288; active = well fitted rising curve with a large enough effect; inconclusive = small, poorly fitted or top-dose-only effect; inactive = no such curve, though single readings can be large or run the other way;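 further: miR-21 action dims this reporter so a rising signal means less miR-21 action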
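Compounds were titrated across several concentrations (up to approximately 40 uM) and incubated 48 hours with HeLa miR-21-FLuc reporter cells (miR-21 target sequence downstream of FLuc, endogenous miR-21). Readout was firefly luciferase luminescence after lytic detection reagent.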
Luc counter: blocks Kinase-Glo luciferase, a counter-screen artifact | Q27757 | Kinase-Glo luciferase, ATP luminescence, 8 min | Potency, µM (doses to about 38.3 µM), most hits filed as inhibitors | 200,000 tested, 0.28% active; also: nearly all actives have a fitted effect of over 60% in size
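Light output from Kinase-Glo luciferase with luciferin and 10 uM ATP in 50 mM imidazole pH 7.2, KCl, MgCl2, Tween 20, BSA; compound pin-delivered, 8-min ambient incubation, then luminescence read.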
GALK inh: inhibitors of human galactokinase; AID 1868; 270,000 tested, 0.007% active; P51570; Purified GALK, Kinase-Glo residual ATP luminescence; Potency, µM (doses to about 57.5 µM), usual class: inhibitors
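GALK at 5 nM final was combined with compound, 35 uM ATP and 100 uM galactose in HEPES pH8.0 with MgCl2 and DTT. The reaction ran one hour at room temperature before luminescent ATP detection.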
PKM2 act: activators of human pyruvate kinase M2 | Potency, µM (top dose mostly 57.5 µM), most hits filed as activators | AID 1631 | purified PKM2, Kinase-Glo ATP luminescence, activation; response scale: 0% is enzyme alone, no compound | 260,000 tested, 0.34% active; also: nearly all actives have a fitted effect of over 55% in size
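ATP formation by purified human PK-M2, quantified via coupled luciferase luminescence after 1 h at room temperature with 0.1 mM ADP and 0.5 mM PEP final.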
HeLa tox: counter-screen for pyruvate kinase M2 activators: HeLa cytotoxicity. shares compounds with PKM2 act. HeLa viability, CellTiter-Glo ATP luminescence, 24 h. activity change, negative = cytotoxicity, % at 57.5 µM. 230 tested, under 10 active
A number is an active result; - = inactive; ? = inconclusive; . = no result; [ ] = dose if it differs, or a comment. Unless noted, calls follow the shape of the dose curve; as a rule, active = well fitted curve in the direction sought with a large enough effect; inconclusive = small, poorly fitted or top-dose-only effect, or another doubt; inactive = no such curve, though single readings can be large; an effect the other way counts as inactive or inconclusive.

SMILES	RXFP1 antagonist	RXFP1 ag	miR-21 reporter	Luc counter	GALK inh	PKM2 act	HeLa tox
Cc1nc2cc(NCc3ccccc3O)ccc2n1Cc1ccccc1	-	-	-	-	-	5.01µM	-
O=C(Cc1cccs1)N1CCCC(c2nc3c(nnn3Cc3cccc(Cl)c3)c(=O)[nH]2)C1 (stereo not drawn)	-	-	-	-	-	15.8µM	-
Clc1cccc(NCc2cn3cccnc3n2)c1	-	-	-	-	-	-	.
COc1ccc(C(=O)N/N=C/c2ccc(N3CCOCC3)s2)cc1OC	-	-	.	.	.	.	.
COc1ccc(C(=O)N/N=C/c2ccc(N3CCOCC3)o2)cc1OC	-	-	-	-	-	2.51µM	-
Cc1ccc(NC(=O)CSC(C)C(=O)OCc2cc(=O)oc3cc(O)ccc23)cc1 (stereo not drawn)	-	.	.	.	.	.	.
COC(=O)c1ccc(C(NC(=O)OCc2ccccc2)/C(F)=C/[C@@H](C)C(=O)N(C)Cc2cccnc2)cc1 (stereo partly drawn)	.	.	.	-	.	-	.
COc1ccc(S(=O)(=O)N2CCN(S(=O)(=O)c3c(F)cccc3F)CC2)cc1	.	-	.	.	.	.	-
Cn1c(=O)[nH]c(=O)c2c1nc(SCC(=O)Nc1ccccc1)n2Cc1ccccc1	.	-	-	-	-	1.58µM	?
Cc1c(C(=O)N2CCOCC2)[nH]c2c1C(=O)CC(c1ccccc1Cl)C2 (stereo not drawn)	-	-	?	-	-	15.8µM	-
Cc1c(C(=O)OC2CCCCC2)[nH]c2c1C(=O)CC(c1ccccc1Cl)C2 (stereo not drawn)	-	?	-	.	.	.	.
O=c1c(Cc2ccc(Cl)cc2)c(O)ccn1Cc1ccncc1	-	-	-	-	-	8.91µM	-
O=C(O)c1cc(-c2ccco2)nn1-c1cccc(Cl)c1	-	-	-	-	-	25.1µM	-
O=C(O)c1cc(-c2ccco2)nn1-c1ccc(Cl)cc1	-	-	-	-	-	-	.
Cc1cc(=O)[nH]c2ccc(S(=O)(=O)Nc3ccc(O)cc3)cc12	-	-	-	.	-	2.24µM	-
CCOC(=O)c1ccc(-n2c(N)c(C(=O)NCc3ccco3)sc2=S)cc1	-	-	-	-	-	?	.
CCn1c(N)c(C(=O)NCc2ccco2)sc1=S	-	-	-	-	-	3.55µM	-
O=S(=O)(c1ccc2c(c1)OCCO2)N1CCN(S(=O)(=O)c2ccc(F)cc2F)CC1	.	.	.	.	.	.	-
O=S(=O)(c1ccc2c(c1)OCCO2)N1CCN(S(=O)(=O)c2cc(F)c(F)cc2F)CC1	.	.	.	.	.	.	-
NC(=O)[C@@H]1CCCN1C(=O)c1ccc2nc(Cc3cccc(Cl)c3)oc2c1	-	-	-	.	-	-	.
CCCc1nnc(NC(=O)CSc2nnc3c4ccccc4n(CC)c3n2)s1	-	-	-	.	.	.	.
CCc1nnc(NC(=O)CSc2nnc3c4ccccc4n(C)c3n2)s1	-	-	-	-	-	1.41µM	-
Cc1cccc(CNc2ccnc(-c3ccc(N(C)C)cc3)n2)c1	.	.	.	-	.	.	.
Cc1coc2cc3oc(=O)c(CCC(=O)NCCN4CCOCC4)c(C)c3cc12	.	-	-	.	.	-	.
C/C=C\C=C/C(=O)Nc1cccc(C2=NOC3(C2)C[C@@H](C(N)=O)N(C(=O)/C=C/C=C\C)C3)c1 (stereo partly drawn)	.	-	-	.	-	1.41µM	-
SMILES	RXFP1 antagonist	RXFP1 ag	miR-21 reporter	Luc counter	GALK inh	PKM2 act	HeLa tox
C/C=C\C=C/C(=O)Nc1cccc(C2=NOC3(C2)C[C@@H](C(N)=O)N(C(=O)/C=C/CC)C3)c1 (stereo partly drawn)	.	-	-	.	-	?	.
Cc1cccc(N2CCN(C(=O)CCC(=O)N3CCOc4ccc(Cl)cc43)CC2C)c1 (stereo not drawn)	-	-	-	.	.	-	.
C[C@@H]1CN(S(=O)(=O)c2ccc3c(c2)OCCO3)CCN1S(=O)(=O)c1c(F)cccc1F	.	.	.	.	.	.	-
CC(=O)N1CCN(S(=O)(=O)c2ccc3c(c2)OCCO3)CC1	-	-	.	.	.	.	.
C[C@H]1CN(S(=O)(=O)c2c(F)cccc2F)CCN1S(=O)(=O)c1ccc2c(c1)OCCO2	.	.	.	.	.	.	-
O=C1CN(S(=O)(=O)c2c(F)cccc2F)CCN1S(=O)(=O)c1ccc2c(c1)OCCO2	.	.	.	.	.	.	-
Cc1cc(C)n2nc(SCc3cc(=O)oc4cc(C)c(C)cc34)nc2n1	.	-	-	-	-	-	.
Cc1cc(C)n2nc(SCc3cc(=O)oc4ccc5ccccc5c34)nc2n1	-	-	-	-	-	2.82µM	-
COc1ccc(S(N)(=O)=O)cc1C(=O)OCC(=O)N1CCCC(C)C1 (stereo not drawn)	-	.	.	.	.	.	.
O=S(=O)(c1cccc(C(F)(F)F)c1)N1CCN(S(=O)(=O)c2ccc3c(c2)OCCO3)CC1	.	.	.	.	.	.	-
O=S(=O)(c1ccccc1)N1CCN(S(=O)(=O)c2ccc3c(c2)OCCO3)CC1	.	.	.	.	.	.	-
COc1cccc(CNC(=O)Cn2nc(N3CCN(c4ccccc4OC)CC3)ccc2=O)c1	-	-	-	.	.	.	.
Cn1c2ccccc2c2nnc(SC3CCOC3=O)nc21 (stereo not drawn)	-	-	-	-	-	14.1µM	-
Cn1c2ccccc2c2nnc(SCC(=O)NC3CCCC3)nc21	-	-	-	.	-	.	.
CC1CCCC(C)N1c1nnc(NC(=O)c2cc(-c3ccc(Br)cc3)on2)s1 (stereo not drawn)	-	-	-	-	-	-	.
COc1cccc(-c2nn(C)c3sc(C(=O)NCc4ccc(C)o4)cc23)c1	-	-	-	-	-	2.51µM	?
c1ccc(-c2nnc(Cn3c4ccccc4c4nc5ccccc5nc43)o2)cc1	-	.	.	.	.	.	.
CC(O)c1nc2ccccc2n1Cc1nnc(-c2ccc(Cl)cc2)o1 (stereo not drawn)	-	-	-	-	-	7.94µM	-
CC(=O)O[C@H]1CC[C@@]2(C)C(=CC[C@@H]3[C@@H]4CC[C@H](c5cc(C(F)(F)F)n(C(C)=O)n5)[C@]4(C)CC[C@@H]32)C1	.	.	.	-[7.66 µM]	.	.	.
COc1cccc(NC(=O)CSc2nnc(-c3ccc(C)cc3)o2)c1	.	-	-	-	-	1.26µM	-
COc1cccc(NC(=O)CSc2nnc(-c3cccc(OC)c3)o2)c1	-	-	-	.	.	.	.
CC(=O)Nc1ccc(NC(=O)CCSCCc2ccccn2)cc1	-	-	-	-	-	-	.
COc1cccc(S(=O)(=O)Nc2ccc(C(=O)N3CCN(C(=O)c4ccco4)CC3)cc2)c1	-	-	-	-	-	1.41µM	-
Cc1ccc(NC(=O)CN(C)C(=O)CSc2ncc(C(F)(F)F)cc2Cl)cc1	-	-	-	-	-	-	.

Screens (PubChem BioAssay)
